Test results taken from US6344444B1 (Nutrition 21, priority 1997, dated 2002).

Columns and labels:
[1] = human volunteer, 8 g/l solution, three one-cup servings daily for three days, oral; third-day 24-hour urine

Substance: arginine-silicate-inositol complex [arginine silicate]
- silicon in third-day urine as share of the silicon ingested daily [1]: approximately 25%
- urinary silicon output, increase from baseline [1]: more than tenfold
- level of silica (SiO2) (aqueous solution 10 g/l, diluted to 0.5 g/L for measurement, 1 hour): 11.8%
- level of silica (SiO2) (aqueous solution 10 g/l, diluted to 0.5 g/L for measurement, 2 hours): 10.8%
- level of silica (SiO2) (aqueous solution 10 g/l, diluted to 0.5 g/L for measurement, 24 hours): 9.2%
- level of silica (SiO2) (aqueous solution 10 g/l, diluted to 0.5 g/L for measurement, time 0): 17.5%
- level of silica (SiO2) (aqueous solution of 0.5 g/l): 17.5%
- stability of silica level (aqueous solution of 0.5 g/l, after 24 hours): stable

Like-named read-outs stand apart in the source and are kept apart here.
